Results taken from paper doi:10.1101/568618 (bioRxiv, 2019).

Target: T1, Arabidopsis COP1^349-675 WD40 domain (Arabidopsis, UniProt P43254 349-675)
T1 sequence: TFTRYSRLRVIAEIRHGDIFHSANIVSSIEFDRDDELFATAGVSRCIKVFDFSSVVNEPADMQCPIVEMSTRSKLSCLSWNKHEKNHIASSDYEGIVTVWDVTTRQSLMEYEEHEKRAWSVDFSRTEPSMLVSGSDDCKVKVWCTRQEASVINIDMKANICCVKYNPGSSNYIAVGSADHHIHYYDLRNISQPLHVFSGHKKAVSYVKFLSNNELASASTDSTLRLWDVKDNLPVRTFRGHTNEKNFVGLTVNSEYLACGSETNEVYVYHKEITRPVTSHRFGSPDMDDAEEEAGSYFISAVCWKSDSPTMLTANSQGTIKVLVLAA
Assay: grating-coupled interferometry

fold reduced affinity against wild-type UVR8: 20 fold
Substance: full-length UVR8^ValPro/AlaAla (from UniProt Q9FN03 1-440) (natural protein)
